# Values quoted from earlier work in patent US9757385B2, “Method of treating leukemia using pharmaceutical formulation containing thienotriazolodiazepine compounds” (ONCOETHIX GmbH, priority 2013, dated 2017).
# Biological target: mTOR (Homo sapiens, UniProt P42345)
# Details: cited from earlier work
substance,measurement,value
GDC-0349,Ki,3.8 nM
